Sequences of proteins named here, by UniProt entry; tags and fusion partners are left off.
UniProt P35968, whole entry: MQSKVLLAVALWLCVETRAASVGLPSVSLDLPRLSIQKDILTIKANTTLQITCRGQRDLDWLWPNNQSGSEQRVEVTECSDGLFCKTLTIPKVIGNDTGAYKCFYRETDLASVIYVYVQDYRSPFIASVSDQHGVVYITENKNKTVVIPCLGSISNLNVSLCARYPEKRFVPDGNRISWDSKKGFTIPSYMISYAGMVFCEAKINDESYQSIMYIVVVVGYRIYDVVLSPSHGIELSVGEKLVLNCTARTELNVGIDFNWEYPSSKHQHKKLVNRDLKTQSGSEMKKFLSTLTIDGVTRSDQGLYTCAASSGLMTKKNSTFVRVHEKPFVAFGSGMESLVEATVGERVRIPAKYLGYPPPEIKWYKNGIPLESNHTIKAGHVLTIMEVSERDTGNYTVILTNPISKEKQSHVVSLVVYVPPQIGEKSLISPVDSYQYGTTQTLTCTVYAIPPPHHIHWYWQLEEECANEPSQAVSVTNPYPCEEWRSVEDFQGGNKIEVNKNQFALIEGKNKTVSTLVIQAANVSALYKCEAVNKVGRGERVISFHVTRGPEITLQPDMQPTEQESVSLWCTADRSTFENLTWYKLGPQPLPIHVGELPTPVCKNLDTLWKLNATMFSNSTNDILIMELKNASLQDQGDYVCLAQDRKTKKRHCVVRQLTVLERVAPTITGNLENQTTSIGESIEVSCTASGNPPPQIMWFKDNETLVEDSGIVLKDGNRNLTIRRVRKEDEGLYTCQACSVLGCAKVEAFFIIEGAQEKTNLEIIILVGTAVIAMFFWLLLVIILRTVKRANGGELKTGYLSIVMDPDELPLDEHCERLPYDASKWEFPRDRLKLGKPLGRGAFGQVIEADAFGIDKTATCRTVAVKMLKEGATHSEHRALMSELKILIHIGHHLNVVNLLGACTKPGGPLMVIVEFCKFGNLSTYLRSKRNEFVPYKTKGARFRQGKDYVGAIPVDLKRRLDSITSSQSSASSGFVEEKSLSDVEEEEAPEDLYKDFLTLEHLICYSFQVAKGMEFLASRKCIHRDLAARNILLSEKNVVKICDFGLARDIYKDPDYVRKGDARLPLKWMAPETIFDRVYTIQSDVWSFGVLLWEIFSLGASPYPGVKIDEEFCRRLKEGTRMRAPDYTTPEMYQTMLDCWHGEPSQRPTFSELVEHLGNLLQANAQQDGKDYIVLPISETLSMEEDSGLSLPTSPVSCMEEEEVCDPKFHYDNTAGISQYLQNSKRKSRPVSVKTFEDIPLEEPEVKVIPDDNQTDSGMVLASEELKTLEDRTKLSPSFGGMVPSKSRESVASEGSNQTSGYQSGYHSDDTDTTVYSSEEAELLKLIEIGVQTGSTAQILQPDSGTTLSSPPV

In ChEMBL document CHEMBL1147965, “Dual irreversible kinase inhibitors: quinazoline-based inhibitors incorporating two independent reactive centers with each targeting different cysteine residues in the kinase domains of EGFR and VEGFR-2” (Bioorg Med Chem, 2007):

Molecular target: Vascular endothelial growth factor receptor 2 (Homo sapiens, UniProt P35968)

IC50: 4.39 µM
Structure (SMILES): CN(C)C/C=C/C(=O)Nc1ccc2ncnc(Nc3ccc(Br)cc3F)c2c1
